Apparent affinities of Ab-14 variants for a coronavirus HR2 peptide

Source: Engelhart et al. 2022 (doi:10.1038/s41597-022-01779-4), MIT Lincoln Laboratory and A-Alpha Bio; data file from the FLAb repository.

Binding partner: SARS-CoV-2 spike HR2 peptide, sequence PDVDLGDISGINAS.

Each scFv is VH, the linker GGGGSGGGGSGGGGS, VL, as in the parent Ab-14, and differs from it in the CDRs of the light chain only.
VH: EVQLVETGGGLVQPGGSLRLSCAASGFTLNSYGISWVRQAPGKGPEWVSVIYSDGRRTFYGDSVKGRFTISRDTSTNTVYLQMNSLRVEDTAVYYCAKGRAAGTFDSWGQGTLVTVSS
VL: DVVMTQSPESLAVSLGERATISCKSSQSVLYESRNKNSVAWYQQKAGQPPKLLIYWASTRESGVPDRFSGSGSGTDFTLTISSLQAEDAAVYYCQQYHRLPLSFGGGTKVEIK

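AAYL50 was designed without a model: most single CDR substitutions and a random sample of double and triple ones. Affinity was read by AlphaSeq, a pooled yeast mating assay with surface-displayed partners. The frequency of each diploid, read from paired DNA barcodes, reflects how well the two displayed proteins bind. Read counts were normalised to the haploid input and turned into Kd by a linear fit to BCL2-family pairs of known affinity, for each replicate. Mating was done three times.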

Substitutions are numbered in sequence along the VL above, starting at 1 (not Kabat). The read-out is the apparent dissociation constant on a log10 scale (nM): the lower, the stronger. An entry "nd" has no value in the source: the pair was not observed among the diploids in that replicate. This suggests poor binding but is not conclusive. Three control strains display no target. For library AAYL50, 18% of the pairings with them gave a signal, with a median of 4.19 and one signal in twenty below 2.99, so weak values seen in few replicates may be background. The control count says in how many pairings with the empty strains this scFv gave a signal, with their mean in brackets.

changes,"log10 Kd, replicates",empty controls
P101K+L102F,1.23 / 1.29 / 1.17,2 of 9 (4.10)
E32A+S58G+R99G,nd / nd / nd,3 of 9 (3.68)
N35A+Q95H+Y97I,nd / 3.64 / nd,4 of 9 (4.86)
K24M+W56I+T59G,nd / nd / 5.48,3 of 9 (4.52)
N37D+Y97A+L102N,1.69 / 1.78 / 1.49,5 of 9 (4.19)
A40W+H98V,nd / nd / nd,0 of 9
Q27K+R34T+N37S,2.14 / 1.91 / 1.99,0 of 9
E32H+R60N+Q96A,nd / nd / nd,0 of 9
S28C+V29Q+N37D,2.29 / 2.34 / 2.45,4 of 9 (4.01)
S26I+K36I+S103R,3.09 / 3.63 / nd,3 of 9 (4.72)
S26Y+S28M+S103G,3.27 / 2.54 / 4.08,2 of 9 (4.44)
S26T+Y31F,nd / nd / nd,1 of 9 (3.64)
S33P+Q95G+P101E,1.26 / 1.42 / 1.37,5 of 9 (4.67)
S26N+V39Q+S58Q,nd / 4.31 / 4.53,2 of 9 (5.02)
S28Q+V29L+E61I,1.88 / nd / nd,0 of 9
K24M+K36F+A40Y,nd / nd / nd,0 of 9
Y31I+S38Q+V39A,nd / nd / nd,1 of 9 (3.95)
W56V+T59W+E61N,nd / 4.83 / nd,2 of 9 (4.11)
L30A+A40Q+H98I,nd / nd / nd,1 of 9 (4.22)
S25P+A40W+R60Y,6.26 / 3.87 / 6.44,5 of 9 (4.61)
S25Y+Q27P+A57Q,2.09 / 1.92 / 1.83,3 of 9 (4.24)
Y31M+R34Q+S58V,0.67 / 0.80 / 0.78,1 of 9 (3.93)
S25G+Q27L+Q96Y,3.89 / 3.39 / nd,0 of 9
Y31F+S58Y+R60T,nd / nd / nd,0 of 9
S25C+Q27T+E61A,nd / nd / 4.79,0 of 9
S28F+R34E+R99I,0.71 / 0.95 / 0.65,0 of 9
Y31M+S62Q+L102A,1.46 / 1.70 / 1.75,0 of 9
N35F+A40F+Q96K,2.78 / 2.95 / 3.23,1 of 9 (3.33)
K36H+H98K,2.78 / 4.06 / 2.89,1 of 9 (4.04)
K24C+R60C,nd / nd / 4.40,5 of 9 (4.49)
V39S+W56D+E61W,4.88 / 4.69 / 5.29,6 of 9 (4.13)
R34Q+A40S+P101S,nd / nd / nd,0 of 9
N37D+T59K+Q95G,3.17 / 3.39 / 5.97,2 of 9 (4.11)
S26H+A57M+L102N,nd / nd / nd,2 of 9 (3.79)
E61R+Y97S,nd / 5.31 / 4.08,2 of 9 (3.92)
L30N+R99Q+S103Q,1.17 / 1.34 / 1.35,4 of 9 (3.72)
E32Q+Y97Q+S103F,1.57 / 1.43 / 1.52,3 of 9 (4.28)
S33E,1.92 / 1.73 / 2.41,3 of 9 (4.10)
V29P+S58V+E61Q,3.21 / 2.27 / 2.98,1 of 9 (4.25)
N35E+Q95A+P101Q,2.28 / 2.45 / 2.60,0 of 9
Y31G+E32H+S38V,nd / nd / nd,1 of 9 (3.41)
K24C+N37A+T59Y,nd / nd / nd,0 of 9
N37R+R60K+S62V,2.36 / 2.13 / 2.47,2 of 9 (3.83)
K24L+A40W+S62H,4.89 / 4.86 / 5.72,5 of 9 (4.86)
N35P+Q96V+R99Y,1.55 / 1.58 / 1.59,2 of 9 (4.26)
A57I+S103E,nd / nd / nd,3 of 9 (3.70)
Q27G+V29K+Q95I,nd / nd / nd,1 of 9 (3.04)
S28F+R34I+L102R,3.12 / 2.83 / 3.68,3 of 9 (4.10)
R34L+K36Q+E61S,0.18 / 0.48 / 0.35,1 of 9 (3.68)

The closing 5 entries, repeated:

changes,"log10 Kd, replicates",empty controls
N35P+Q96V+R99Y,1.55 / 1.58 / 1.59,2 of 9 (4.26)
A57I+S103E,nd / nd / nd,3 of 9 (3.70)
Q27G+V29K+Q95I,nd / nd / nd,1 of 9 (3.04)
S28F+R34I+L102R,3.12 / 2.83 / 3.68,3 of 9 (4.10)
R34L+K36Q+E61S,0.18 / 0.48 / 0.35,1 of 9 (3.68)